From ChEMBL document CHEMBL1770143, “Biological evaluation of 3'-O-alkylated analogs of salacinol, the role of hydrophobic alkyl group at 3' position in the side chain on the α-glucosidase inhibitory activity” (Bioorg Med Chem Lett, 2011)

Chains of the proteins cited; added tags and fusions are not shown. Residues count along the entry.
UniProt P23739, 1014-1841 limits assumed: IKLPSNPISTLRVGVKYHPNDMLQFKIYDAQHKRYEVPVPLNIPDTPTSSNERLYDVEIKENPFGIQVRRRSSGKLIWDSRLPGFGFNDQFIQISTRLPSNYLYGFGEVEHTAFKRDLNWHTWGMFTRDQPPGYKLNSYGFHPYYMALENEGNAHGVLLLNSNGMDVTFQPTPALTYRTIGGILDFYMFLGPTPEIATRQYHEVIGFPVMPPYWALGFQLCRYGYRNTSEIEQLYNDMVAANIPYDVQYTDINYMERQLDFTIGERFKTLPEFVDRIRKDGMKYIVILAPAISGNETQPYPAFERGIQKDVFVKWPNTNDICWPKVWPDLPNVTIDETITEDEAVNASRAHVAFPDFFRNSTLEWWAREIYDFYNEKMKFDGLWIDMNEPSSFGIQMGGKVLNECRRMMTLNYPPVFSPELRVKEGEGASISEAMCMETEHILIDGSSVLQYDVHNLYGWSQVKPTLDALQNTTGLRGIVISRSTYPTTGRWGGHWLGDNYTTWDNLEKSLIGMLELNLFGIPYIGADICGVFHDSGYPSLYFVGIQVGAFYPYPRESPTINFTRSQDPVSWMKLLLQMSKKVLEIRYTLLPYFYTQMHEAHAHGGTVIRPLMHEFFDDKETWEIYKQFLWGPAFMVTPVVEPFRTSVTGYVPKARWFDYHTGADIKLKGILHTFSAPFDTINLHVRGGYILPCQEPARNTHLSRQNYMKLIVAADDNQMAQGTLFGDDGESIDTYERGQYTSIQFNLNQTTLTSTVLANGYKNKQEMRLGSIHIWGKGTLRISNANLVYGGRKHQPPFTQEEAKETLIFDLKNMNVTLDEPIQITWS
UniProt P23739, 1-1013 limits assumed: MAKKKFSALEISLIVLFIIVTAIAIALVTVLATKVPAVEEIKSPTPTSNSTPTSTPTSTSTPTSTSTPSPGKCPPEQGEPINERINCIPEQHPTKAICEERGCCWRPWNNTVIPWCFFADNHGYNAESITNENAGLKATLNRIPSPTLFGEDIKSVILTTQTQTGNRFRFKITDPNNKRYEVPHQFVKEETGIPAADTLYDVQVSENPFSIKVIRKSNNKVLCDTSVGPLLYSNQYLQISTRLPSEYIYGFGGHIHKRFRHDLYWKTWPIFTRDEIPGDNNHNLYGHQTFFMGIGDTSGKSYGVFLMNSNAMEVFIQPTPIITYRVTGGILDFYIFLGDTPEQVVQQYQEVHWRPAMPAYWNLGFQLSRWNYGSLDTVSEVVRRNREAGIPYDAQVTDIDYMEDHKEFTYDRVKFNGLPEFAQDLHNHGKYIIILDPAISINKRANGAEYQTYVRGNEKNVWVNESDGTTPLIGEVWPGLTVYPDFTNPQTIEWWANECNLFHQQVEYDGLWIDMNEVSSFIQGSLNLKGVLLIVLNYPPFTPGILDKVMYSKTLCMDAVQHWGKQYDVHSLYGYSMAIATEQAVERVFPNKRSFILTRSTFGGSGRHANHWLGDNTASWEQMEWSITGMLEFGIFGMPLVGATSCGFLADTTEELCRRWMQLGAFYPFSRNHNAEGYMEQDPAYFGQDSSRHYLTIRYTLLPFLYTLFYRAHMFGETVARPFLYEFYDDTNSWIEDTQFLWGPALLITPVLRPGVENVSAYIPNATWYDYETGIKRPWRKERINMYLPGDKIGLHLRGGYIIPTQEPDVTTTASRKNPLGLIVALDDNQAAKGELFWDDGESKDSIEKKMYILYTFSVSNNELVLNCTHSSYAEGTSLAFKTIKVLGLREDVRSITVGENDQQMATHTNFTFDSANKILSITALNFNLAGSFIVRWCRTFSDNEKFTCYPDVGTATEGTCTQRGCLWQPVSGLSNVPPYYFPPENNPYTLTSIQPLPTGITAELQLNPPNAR

Biological target: Sucrase-isomaltase, intestinal (Rattus norvegicus, UniProt P23739)
Experiment: Inhibition of rat small intestinal isomaltase after 30 mins by glucose-oxidase method
How it was run: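 Enzyme source was rat small-intestinal brush border membrane vesicles suspended in 0.1 M maleate buffer, pH 6.0. Substrate solutions, prior to mixing, were maltose 74 mM (maltase), sucrose 74 mM (sucrase) and isomaltose 7.4 mM (isomaltase). Substrate, inhibitor and enzyme were incubated at 37 °C for 30 min, then stopped by 2 min boiling. Released glucose was measured by glucose oxidase. Final DMSO was 2.5%.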

Question: With `C[C@H]1O[C@H](O[C@H]2[C@H](O)[C@@H](O)[C@@H](O[C@H]3[C@H](O)[C@@H](O)C(O)O[C@@H]3CO)O[C@@H]2CO)[C@H](O)[C@@H](O)[C@@H]1N[C@H]1C=C(CO)[C@@H](O)[C@H](O)[C@H]1O` (stereo partly specified) [ACARBOSE] as the compound, how does the IC50 read?
Answer: 646 µM
